From publication PMC9256669, “Monomethyl auristatin antibody and peptide drug conjugates for trimodal cancer chemo-radio-immunotherapy” (Nature Communications, 2022)

Tests used:
B16 cells = experiment: Cell surface binding of Cy5-labeled ADCs by flow cytometry; type: cell-based, murine
Description: Vehicle 2.5 nmoles 5 nmoles Vehicle CDX3379- […]
tumor xenografts (tumor locations circled yellow). Mice i.v. injected with 2.5 nmoles Cy5 labeled CDX3379-MMAE. White light imaged mouse on far left. Cy5 captured images at […]
days post injection. White light images (top) and Cy5 images (bottom) captured. Images […]
orthotopic tongue tumors.
48 hr. Imaged tongue delineated by dashed gray line. Images representative of 3 […]
by flow cytometry. Mean fluorescent intensity measured and subtracted from baseline fluorescence of saline incubated cells for each cell line. Data representative of 3 […]
pseudocolor scale bar shown far right. Gut auto-fluorescence indicated by blue arrows.
Images representative of 2 mice/group. Source data are provided in Source Data file.

B16 tumors = experiment: Subcutaneous tumor therapy, ADC monotherapy, mouse survival; type: in vivo, C57BL/6 mice

Q: What does the source list for “Cetux-MMAE: cetuximab (anti-human EGFR antibody)-MMAE conjugate, negative control ADC for murine tumors”?
A: cell surface binding to B16 cells (B16 cells): did not appreciably attach; anti-tumor activity as measured by mouse survival (B16 tumors): did not significantly increase survival
